Values of other authors, collected in patent US8378104B2 (OSI Pharmaceuticals, LLC, priority 2010, dated 2013).

System: picryl chloride-induced ear swelling
Settings: picryl chloride-induced ear swelling mouse model; cited from earlier work

For `COc1cc(O)c2c(c1)/C=C/C[C@H](O)[C@H](O)C(=O)/C=C\C[C@H](C)OC2=O`, the “inflammation in ear swelling model” value is given as “relieves inflammation”.
